Assay [1] concerns the target T1, Prothrombin (Homo sapiens, UniProt P00734). Briefly: Binding affinity towards thrombin was determined.
Assay [2] addresses T1, Prothrombin. Briefly: Inhibition of thrombin-catalyzed hydrolysis of a standard substrate.

This note sets out measurements from ChEMBL document CHEMBL1131597, “Discovery and development of the novel potent orally active thrombin inhibitor N-(9-hydroxy-9-fluorenecarboxy)prolyl trans-4-aminocyclohexylmethyl amide (L-372,460): coapplication of structure-based design and rapid multiple analogue synthesis on solid support” (J Med Chem, 1998).

The structures appear in SMILES notation.

Compound `NC1CCC(CNC(=O)[C@@H]2CCCN2C(=O)[C@@H](N)C2CCCCC2)CC1` (some centres not stated) showed a Ki in assay [1] of 3 nM. This compound yielded an IC50 in assay [2] of 3 nM.

As a reminder, the Ki is a dissociation constant, usually derived from enzyme kinetics or from competition with a known ligand. The IC50 is the concentration needed to halve the response being measured. A lower IC50 goes with higher potency.
